This is an account of results in US20230312576A1.

The assay concerns HeLa cells. The experiment in a line: Cytotoxicity, CellTiter-Glo Luminescent Cell Viability assay, HeLa. The following applies: read-out: EC50 (inhibitor concentration corresponding to half of live cells), 48 hours. In general terms: In ATP-based viability assays light output follows the ATP content of the culture.

As for `Cc1c2cc[nH]c(=O)c2c(C)c2c1[nH]c1ccc(OC(=O)c3ccccc3)cc12`, the EC50 turned out to be 1000 nM.
